{"sequences": {"note": "Protein sequences, listed by entry. Tags and fused reporters are not part of them. Residues count along the entry.", "UniProt Q9GZT9, 177-426": "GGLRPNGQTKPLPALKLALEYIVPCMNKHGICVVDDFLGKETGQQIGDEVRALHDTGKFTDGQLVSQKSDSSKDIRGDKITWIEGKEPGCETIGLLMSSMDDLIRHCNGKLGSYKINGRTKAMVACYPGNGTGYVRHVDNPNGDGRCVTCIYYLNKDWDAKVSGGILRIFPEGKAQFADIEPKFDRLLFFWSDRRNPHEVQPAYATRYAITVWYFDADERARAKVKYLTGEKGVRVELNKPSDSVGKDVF"}, "source": "paper PMC3525482", "about": "(Journal of inorganic biochemistry, 2012)", "target": "PHD2 (Homo sapiens, UniProt Q9GZT9)", "assay": "PHD2 activity assay, Michaelis constant for αKG", "format": "biochemical", "details": "read-out: KM (Michaelis constant for αKG), PHD2", "data": [{"smiles": "O=C(O)CCC(=O)C(=O)O", "note": "[αKG, alpha-ketoglutarate]", "values": [{"measurement": "Km", "result": "7 ± 2.5", "unit": "µM"}]}]}
